Measured values taken from patent publication EP3536368B1, “DRY POWDER INHALER COMPRISING A SEROTONIN RECEPTOR AGONIST AND A DIKETOPIPERAZINE FOR TREATING MIGRAINES” (MannKind Corporation, priority 2010, dated 2012).

Assay: Pharmacokinetics of sumatriptan in rats (serum, LCMS)
Conditions: rat, SC (subcutaneous injection)

Structure (SMILES): CNS(=O)(=O)Cc1ccc2[nH]cc(CCN(C)C)c2c1 [Sumatriptan, sumatriptan]
- tmax: 5 min
